Target: T1, CB1 receptor (Rattus norvegicus, UniProt P20272)
T1 construct: from tissue; host or cells: whole animal: male normotensive rats (Harlan)
Assay: CP-55,940 induced hypotension in the rat
Format: in vivo
Conditions: read-out: Blood pressure (rat) ED50

Chains of the proteins cited; added tags and fusions are not shown.
UniProt P20272, whole entry: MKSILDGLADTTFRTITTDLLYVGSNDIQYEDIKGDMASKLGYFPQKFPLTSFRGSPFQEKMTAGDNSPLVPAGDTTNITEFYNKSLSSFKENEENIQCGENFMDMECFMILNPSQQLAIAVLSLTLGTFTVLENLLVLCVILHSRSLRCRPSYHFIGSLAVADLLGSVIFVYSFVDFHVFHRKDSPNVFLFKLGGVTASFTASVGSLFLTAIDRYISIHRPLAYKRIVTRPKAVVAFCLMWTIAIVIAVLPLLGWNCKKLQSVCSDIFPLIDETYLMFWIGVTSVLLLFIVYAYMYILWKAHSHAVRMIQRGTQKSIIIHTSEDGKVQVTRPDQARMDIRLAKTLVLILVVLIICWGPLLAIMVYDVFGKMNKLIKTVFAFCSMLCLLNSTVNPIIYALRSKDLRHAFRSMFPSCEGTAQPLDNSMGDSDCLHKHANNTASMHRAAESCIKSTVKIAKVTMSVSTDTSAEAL

Q: `Cc1c(C(=O)NN2CCCCC2)nn(-c2ccc(Cl)cc2Cl)c1-c1ccc(Cl)cc1` [rimonabant, reference compound] was tested. Which ED50 did it give?
A: Its ED50 is 3.2 mg/kg.
